Literature values as cited in publication PMC4422956 (EJNMMI Research, 2014).

Sequences of proteins named here, by UniProt entry; tags and fusion partners are left off. A change or cut given only in a name is not applied to a line headed by its entry.
UniProt P14416, whole entry: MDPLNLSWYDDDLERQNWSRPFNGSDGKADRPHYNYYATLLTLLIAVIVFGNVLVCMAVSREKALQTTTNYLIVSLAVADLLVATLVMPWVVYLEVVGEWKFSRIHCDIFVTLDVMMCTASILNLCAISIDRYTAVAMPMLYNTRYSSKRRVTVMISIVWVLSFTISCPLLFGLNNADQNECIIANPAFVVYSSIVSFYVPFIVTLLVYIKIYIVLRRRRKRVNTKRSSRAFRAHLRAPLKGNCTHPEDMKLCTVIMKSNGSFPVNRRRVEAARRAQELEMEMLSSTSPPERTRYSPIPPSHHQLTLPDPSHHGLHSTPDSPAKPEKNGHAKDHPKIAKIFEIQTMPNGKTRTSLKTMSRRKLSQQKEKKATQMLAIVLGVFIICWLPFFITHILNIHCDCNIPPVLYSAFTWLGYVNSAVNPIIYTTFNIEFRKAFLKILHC

Molecular target: T1, human DA D2L receptor (Homo sapiens, UniProt P14416)
T1 construct: gene DRD2; full-length D2L stably expressed in HEK 293 cells
Test: 3H-spiperone radioligand binding, membranes
Settings: high-affinity state; marked as published earlier by the same authors (ref […]); cited from earlier work

SMILES: Oc1ccc2c(c1)O[C@@H](CNCc1ccc(I)cc1)CC2 [11a, (R)N-[7-hydroxychroman-2-yl]-methyl 4-iodobenzyl amine]
- pK i D 2 -high: 8.69
